# Assay results taken from ChEMBL document CHEMBL1124958 (J Med Chem, 1990).
# By UniProt entry, the sequences of proteins in these tests, tags left out.
# UniProt Q64264, whole entry: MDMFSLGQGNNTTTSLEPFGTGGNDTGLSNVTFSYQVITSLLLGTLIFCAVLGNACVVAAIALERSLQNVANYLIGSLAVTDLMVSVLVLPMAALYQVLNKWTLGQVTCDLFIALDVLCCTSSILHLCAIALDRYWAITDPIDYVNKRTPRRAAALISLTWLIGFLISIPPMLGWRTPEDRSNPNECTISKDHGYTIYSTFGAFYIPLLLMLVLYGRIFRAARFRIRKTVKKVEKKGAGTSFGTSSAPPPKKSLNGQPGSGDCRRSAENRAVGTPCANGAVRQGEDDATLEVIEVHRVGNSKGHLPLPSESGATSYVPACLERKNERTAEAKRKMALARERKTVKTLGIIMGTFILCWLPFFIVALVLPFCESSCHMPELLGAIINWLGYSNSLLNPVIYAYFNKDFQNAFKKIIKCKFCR
# Target: 5-hydroxytryptamine receptor 1A (Mus musculus, UniProt Q64264)
# Assay: Inhibitory activity towards 5-hydroxytryptamine 1A receptor by the displacement of [3H]8-OH-DPAT in mouse hippocampus
# Format: tissue-based
# Method in brief: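 Membranes incubated in triplicate with 1.2 nM [3H]8-OH-DPAT plus varying analogue concentrations, 30 min at 23 °C, 0.5 mL final volume. Filtered on PEI-pretreated GF/B; scintillation counting. IC50 derived from seven-point inhibition curves.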
structure (smiles),measurement,value
NCCc1c[nH]c2ccc(O)cc12 [SEROTONIN],IC50,5 nM
